This note sets out measurements from US20230139516A1 (CEDARS SINAI MEDICAL CENTER, published 2023).

In this assay the target is T1, receptor-interacting protein kinase 2 (RIPK2), endogenous (human).
T1 construct: Endogenous protein detected in cells with anti-RIPK2 antibodies (PLA, IP)
Description: proximity ligation assay (PLA) of endogenous proteins in parental HEK293T cells.

B1: c-Myc (other, human, UniProt P01106-1 1-439, looked up)
chain: MPLNVSFTNRNYDLDYDSVQPYFYCDEEENFYQQQQQSELQPPAPSEDIWKKFELLPTPPLSPSRRSGLCSPSYVAVTPFSLRGDNDGGGGSFSTADQLEMVTELLGGDMVNQSFICDPDDETFIKNIIIQDCMWSGFSAAAKLVSEKLASYQAARKDSGSPNPARGHSVCSTSSLYLQDLSAAASECIDPSVVFPYPLNDSSSPKSCASQDSSAFSPSSDSLLSSTESSPQGSPEPLVLHEETPPTTSSDSEEEQEDEEEIDVVSVEKRQAPGKRSESGSPSAGGHSKPPHSPLVLKRCHVSTHQHNYAAPPSTRKDYPAAKRVKLDSVRVLRQISNNRKCTSPRSSDTEENVKRRTHNVLERQRRNELKRSFFALRDQIPELENNEKAPKVVILKKATAYILSVQAEEQKLISEEDLLRKRREQLKHKLEQLRNSCA
notes: also called c-Myc oncoprotein
In the case of B1, the binding result was “no binding”.
